Laboratory results taken from ChEMBL document CHEMBL5096200, “A short survey of dengue protease inhibitor development in the past 6 years (2015-2020) with an emphasis on similarities between DENV and SARS-CoV-2 proteases” (Bioorg Med Chem, 2021).

Target: Genome polyprotein (dengue virus type 2, UniProt P29990)

O=C(O)c1ccccc1-c1c2cc(I)c(=O)c(I)c-2oc2c(I)c(O)c(I)cc12
IC50: 15 µM
